Literature values, collected in article PMC2751796 (Pharmacology & therapeutics, 2009).

Experiments:
[1] = test system: P-gp; conditions: ref Schinkel et al., 1994; cited from earlier work
[2] = test system: P-gp; conditions: ref Hugnet et al., 1996; Mealey et al., 2001, 2003, 2008; Sartor et al., 2004; cited from earlier work

## ivermectin
[1]
  Greater sensitivity to neurotoxicity in Mdr1a-/- KO mice: ~100 fold
[2]
  Effect of exposure in Collie and other dog breeds that naturally lack P-gp: neurological symptoms
